Test results taken from patent US4584305A, “Aiding the regression of neoplastic disease with 2,3,5,6-tetrahydro-6-phenylimidazo[2,1-b]thiazole” (Janssen Pharmaceutica N.V., priority 1981, dated 1986).

Test: Toxicity (mouse LD50)
Settings: in vivo

SMILES: c1ccc(C2CN3CCSC3=N2)cc1 (stereo not shown) [levamisole, 2,3,5,6-tetrahydro-6-phenyl-imidazo[2,1-b]thiazole]
- LD50: 121 mg/kg
